Measured values published in publication PMC1971115.

The chains behind the UniProt entries cited, without tags or fusion partners. Where a name states a change or a piece, a line headed by the entry shows the natural chain unless it says otherwise.
UniProt P69905, whole entry, chain 1 of 2: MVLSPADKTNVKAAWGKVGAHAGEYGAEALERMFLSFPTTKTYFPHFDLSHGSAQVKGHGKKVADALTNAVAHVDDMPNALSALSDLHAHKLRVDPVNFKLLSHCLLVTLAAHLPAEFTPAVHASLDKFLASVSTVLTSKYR
UniProt P00739: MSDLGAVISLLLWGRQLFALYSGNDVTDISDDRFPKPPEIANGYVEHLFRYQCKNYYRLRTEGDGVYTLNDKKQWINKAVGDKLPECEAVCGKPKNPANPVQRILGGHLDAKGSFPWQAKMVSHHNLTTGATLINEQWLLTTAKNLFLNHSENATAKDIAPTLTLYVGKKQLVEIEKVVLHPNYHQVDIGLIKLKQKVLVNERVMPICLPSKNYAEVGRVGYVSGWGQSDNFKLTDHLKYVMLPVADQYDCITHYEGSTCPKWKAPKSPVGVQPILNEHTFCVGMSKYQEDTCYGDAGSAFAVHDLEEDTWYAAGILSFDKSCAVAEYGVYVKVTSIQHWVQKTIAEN

Molecular target: hemoglobin A0 (human) (UniProt P69905)
Test: SPR; Hb A0 immobilised; purified native Hpr or TLF (two-step) flowed over; Langmuir 1:1 binding model, BIAevaluation 4.1; essentially as in ref. 31

- Kd: 2 to 5 nM
Substance: haptoglobin-related protein (from UniProt P00739 1-348; P00739 1-348) (natural protein)
